Literature values, collected in US20250299826A1, “OPTIMAL TUMOR MICROENVIRONMENT NORMALIZATION THERAPY” (University of Connecticut, priority 2022, published 2025).
Where two headings read alike, the source gives them in different places.

Settings: cited from earlier work

Row | Substance | k_d, blood circulation time (tumor transport model parameter) [min] | half-life of vascular concentration (in vivo) | k_d, blood circulation time (in vivo) [min]
1 | 70 kDa rhodamine-bound dextran | 1480 | – | –
2 | 500 kDa FITC-bound dextran | – | around 21 h | 1278
